The record followed here is ChEMBL document CHEMBL1142440, “Discovery, synthesis and biological evaluation of isoquinolones as novel and highly selective JNK inhibitors (1)” (Bioorg Med Chem, 2008).

Protein sequences, listed by entry. Tags and fused reporters are not part of them. Lines headed by an entry give the natural chain unless they say otherwise; changes in a name come on top.
UniProt P45984: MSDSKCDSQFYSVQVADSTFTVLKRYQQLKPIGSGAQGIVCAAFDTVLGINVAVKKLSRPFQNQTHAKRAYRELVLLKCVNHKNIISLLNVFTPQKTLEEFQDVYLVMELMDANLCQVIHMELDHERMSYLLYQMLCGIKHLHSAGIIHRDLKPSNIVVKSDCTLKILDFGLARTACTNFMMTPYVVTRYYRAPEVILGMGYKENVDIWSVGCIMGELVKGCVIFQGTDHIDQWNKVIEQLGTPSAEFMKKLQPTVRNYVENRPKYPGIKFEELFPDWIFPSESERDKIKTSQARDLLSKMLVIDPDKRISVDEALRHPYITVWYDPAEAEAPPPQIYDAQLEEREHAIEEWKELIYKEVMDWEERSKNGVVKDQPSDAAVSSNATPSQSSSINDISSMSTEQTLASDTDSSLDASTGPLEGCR
UniProt P53779: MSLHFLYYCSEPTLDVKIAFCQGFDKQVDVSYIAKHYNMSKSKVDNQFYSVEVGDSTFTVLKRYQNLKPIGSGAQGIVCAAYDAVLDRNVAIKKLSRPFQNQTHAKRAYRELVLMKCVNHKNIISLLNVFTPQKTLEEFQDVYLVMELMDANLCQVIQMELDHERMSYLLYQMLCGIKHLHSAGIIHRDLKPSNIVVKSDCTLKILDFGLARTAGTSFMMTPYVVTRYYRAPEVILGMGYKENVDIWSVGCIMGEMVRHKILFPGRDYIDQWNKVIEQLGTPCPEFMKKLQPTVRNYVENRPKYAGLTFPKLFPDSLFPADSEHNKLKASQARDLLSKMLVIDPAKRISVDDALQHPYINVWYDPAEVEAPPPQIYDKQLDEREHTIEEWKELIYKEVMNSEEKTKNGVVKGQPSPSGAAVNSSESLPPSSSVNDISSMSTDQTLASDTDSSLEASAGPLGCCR

Experiment [1] deals with Mitogen-activated protein kinase 9 (Homo sapiens, UniProt P45984). The experiment can be described thus: Inhibition of JNK2.
Experiment [2] addresses Mitogen-activated protein kinase 10 (Homo sapiens, UniProt P53779). As to the kind of experiment: Inhibition of JNK3.

The structures appear in SMILES notation.

Broadly, the IC50 is the concentration that gives 50% inhibition. The low end stands for inhibition by little substance, the high end for a need for much substance. As for `COC(=O)c1c(-c2ccccc2)c2cc(Br)ccc2c(=O)n1Cc1ccc(S(C)(=O)=O)cc1`, the IC50 was 34 nM in experiment [1] and 30 nM in experiment [2].
